## AlphaSeq binding of Ab-14 light chain variants to a spike HR2 peptide

Source: Engelhart et al. 2022 (doi:10.1038/s41597-022-01779-4), MIT Lincoln Laboratory and A-Alpha Bio; data file from the FLAb repository.

Target: peptide PDVDLGDISGINAS, taken from heptad repeat 2 (HR2) of SARS-CoV-2 spike.

Each scFv is VH, a (GGGGS)3 linker, VL, as in the parent Ab-14, and differs from it in the CDRs of the light chain only.
VH: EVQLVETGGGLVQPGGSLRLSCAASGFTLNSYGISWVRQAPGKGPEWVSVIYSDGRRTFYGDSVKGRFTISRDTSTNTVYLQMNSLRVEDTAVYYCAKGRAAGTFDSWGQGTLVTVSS
VL: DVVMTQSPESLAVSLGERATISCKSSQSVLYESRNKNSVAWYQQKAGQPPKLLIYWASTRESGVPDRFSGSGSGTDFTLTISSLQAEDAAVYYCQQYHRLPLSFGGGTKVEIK

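The starting antibody came from a phage panning campaign against this peptide. AAYL50 was designed without a model: most single CDR substitutions and a random sample of double and triple ones. AlphaSeq pools MATa yeast showing the antibodies with MATalpha yeast showing the peptide. After mating in shaken culture at 30 °C for 16 h, diploids were selected and their barcode pairs sequenced. Scores were corrected for input abundance and mapped to Kd with protein pairs of known affinity run in the same pool. Mating was done three times.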

Each variant is given by its three light chain CDRs, as the data file delimits them; those of the parent are KSSQSVLYESRNKNSVA, WASTRES, QQYHRLPLS. Values are log10 of the apparent Kd in nM; lower means stronger binding. A mean of the replicates is given; it leaves out those without a signal. An entry "no signal" has no value in the source: the pair was not observed among the diploids in any replicate. This suggests poor binding but is not conclusive. Nonspecific signal, from three strains lacking the peptide, appeared in 18% of pairings of library AAYL50, centred on 4.19 (5% of these signals below 2.99); values are not corrected for it.

KSSQSVLYESRNKNSKA / WASTRFS / QQYHRLPLS: 4.22 (2 of 3 replicates).
KSSQSVLYESRNKNKHA / WASTRES / QQYHRLPLS: 4.58 (1 of 3 replicates).
KSSGSVLYEYRNKNSVA / WASTRES / QAYHRLPLS: 4.47 (2 of 3 replicates).
KSSQSVLYCSRNKNSVA / WAFTRES / QQYKRLPLS: no signal (0 of 3 replicates).
KSSQSYLYESRYKNSVA / WASTRES / QQYHRNPLS: 1.92 (3 of 3 replicates).
KSSQSVLFESRNKSSVA / WASTRVS / QQYHRLPLS: 1.24 (3 of 3 replicates).
KSSQSVLYESRNKNSVA / WASTRES / QWYHCLPLS: 1.24 (3 of 3 replicates).
KSSQSVLYESRNKRSVA / WASTREC / QQYHRLPKS: 2.55 (3 of 3 replicates).
KSSWSVLYESRNKNSVA / WASTRES / QQSHRLPLS: 0.93 (3 of 3 replicates).
QSSQSMLYESRNKNSVA / WASTRES / QQYHRLPLS: 1.10 (3 of 3 replicates).
KSSQSWTYESGNKNSVA / WASTRES / QQYHRLPLS: 0.27 (3 of 3 replicates).
KYSQSVLYELRNKNSVA / WASTRES / QQYMRLPLS: 1.82 (3 of 3 replicates).
KSSQSVLWESRNKMSVA / WTSTRES / QQYHRLPLS: 1.82 (3 of 3 replicates).
KLSQSVLYESRNKNSVA / WASTRES / QAYGRLPLS: no signal (0 of 3 replicates).
KSSQSVLYESRVKNSVA / WASSREK / QQYHRLPLS: 3.63 (3 of 3 replicates).
KSSQSVHYESRNKNSVA / WAWTRPS / QQYHRLPLS: no signal (0 of 3 replicates).
KSSQSVSYESRNKNSVA / WASTLDS / QQYHRLPLS: 1.43 (3 of 3 replicates).
KSSQSWLKESRNKNSVA / WASTRES / QQYHREPLS: 0.56 (3 of 3 replicates).
KSSQSVLYESRNKNSDA / WQSTRES / QQYHRLPTS: 3.95 (1 of 3 replicates).
WSSQSVLYESRNKNSVA / WASARES / QQYHRLPHS: no signal (0 of 3 replicates).
KSSQSVLYESSNKNSVA / RAETRES / QQYHRLPLS: 2.45 (3 of 3 replicates).
KPCQSVLTESRNKNSVA / WASTRES / QQYHRLPLS: 1.46 (3 of 3 replicates).
KQSQSVLYESRNKNSVA / WASTIES / QQYHGLPLS: 3.27 (1 of 3 replicates).
KSSQSVLYESHNKNSLA / WASTRES / QQYHRLPLS: 4.15 (1 of 3 replicates).
KSSQSVLYESRNKNPVP / WASTSES / QQYHRLPLS: no signal (0 of 3 replicates).
KSTQSVLYESRNKNSVA / WASTRES / NQYDRLPLS: 1.54 (3 of 3 replicates).
KSRQSVLYESRNKNSVA / WAHTRES / QQYHRLPLF: 1.52 (3 of 3 replicates).
GSSQSVLYRSRNKNSVA / WASNRES / QQYHRLPLS: 4.93 (1 of 3 replicates).
QSSQSHLYESRNKNSGA / WASTRES / QQYHRLPLS: 3.56 (3 of 3 replicates).
KSSQSVLYSSRNKNSVA / WASTRES / QQDHRLKLS: 1.20 (3 of 3 replicates).
KSSGSVLYKSRNKNSVA / WASVRES / QQYHRLPLS: 2.07 (3 of 3 replicates).
LSSQSLLYESRNKNSVA / WASTRES / QKYHRLPLS: no signal (0 of 3 replicates).
KDSQSVLYESRNKNVVA / HASTRES / QQYHRLPLS: 1.74 (3 of 3 replicates).
KSQQSVLYEFRNKNSVA / WASTRES / VQYHRLPLS: 5.59 (1 of 3 replicates).
KSSQSVLYESRNRNSVA / WASTRES / QQYHRRPLS: 3.38 (2 of 3 replicates).
KSSQSVLYESRNKNSVA / WAYTRES / QQYHRLNMS: 3.61 (2 of 3 replicates).
KSSQSVLYESRWDNSVA / WASTDES / QQYHRLPLS: no signal (0 of 3 replicates).
KSSQSVSYESRNKNSVA / WASTRES / QQYHFLPLS: 1.52 (3 of 3 replicates).
KSFQSVLYESRCKNSVA / WASTRES / QQYHLLPLS: 3.46 (1 of 3 replicates).
KSSQSVHYESRNKNSMA / WASQRES / QQYHRLPLS: 1.67 (3 of 3 replicates).
KSSQSVLYPSRNKNSVA / RASTRES / VQYHRLPLS: no signal (0 of 3 replicates).
KSSQSVLYASRNFNSVA / WASTRQS / QQYHRLPLS: 1.35 (1 of 3 replicates).
KSSQSVAYESRNKNSVA / WASTMES / QQYHYLPLS: no signal (0 of 3 replicates).
KSSQSVLYGSRFKNSVA / WASTPES / QQYHRLPLS: 4.80 (1 of 3 replicates).
KSSQSVLYEARNKNSVE / WASTRES / QQYHRQPLS: 4.30 (1 of 3 replicates).
KSSQSVLYMSRNKNSVD / WAVTRES / QQYHRLPLS: no signal (0 of 3 replicates).
KSLQSVLYEPRNKNSYA / WASTRES / QQYHRLPLS: 4.48 (1 of 3 replicates).
KSSQSVLYESENKNSVA / WASARES / QQYHRFPLS: 1.34 (3 of 3 replicates).
KSSQSVLYFVRNKNSVA / IASTRES / QQYHRLPLS: 4.42 (1 of 3 replicates).
KSSQSVIYESRNKTSVA / WASTRES / QQYHRNPLS: 3.27 (3 of 3 replicates).